Measured values from US12590088B2 (dated 2026).

Chains of the proteins cited; added tags and fusions are not shown. Lines headed by an entry give the natural chain unless they say otherwise; changes in a name come on top.
UniProt P23458: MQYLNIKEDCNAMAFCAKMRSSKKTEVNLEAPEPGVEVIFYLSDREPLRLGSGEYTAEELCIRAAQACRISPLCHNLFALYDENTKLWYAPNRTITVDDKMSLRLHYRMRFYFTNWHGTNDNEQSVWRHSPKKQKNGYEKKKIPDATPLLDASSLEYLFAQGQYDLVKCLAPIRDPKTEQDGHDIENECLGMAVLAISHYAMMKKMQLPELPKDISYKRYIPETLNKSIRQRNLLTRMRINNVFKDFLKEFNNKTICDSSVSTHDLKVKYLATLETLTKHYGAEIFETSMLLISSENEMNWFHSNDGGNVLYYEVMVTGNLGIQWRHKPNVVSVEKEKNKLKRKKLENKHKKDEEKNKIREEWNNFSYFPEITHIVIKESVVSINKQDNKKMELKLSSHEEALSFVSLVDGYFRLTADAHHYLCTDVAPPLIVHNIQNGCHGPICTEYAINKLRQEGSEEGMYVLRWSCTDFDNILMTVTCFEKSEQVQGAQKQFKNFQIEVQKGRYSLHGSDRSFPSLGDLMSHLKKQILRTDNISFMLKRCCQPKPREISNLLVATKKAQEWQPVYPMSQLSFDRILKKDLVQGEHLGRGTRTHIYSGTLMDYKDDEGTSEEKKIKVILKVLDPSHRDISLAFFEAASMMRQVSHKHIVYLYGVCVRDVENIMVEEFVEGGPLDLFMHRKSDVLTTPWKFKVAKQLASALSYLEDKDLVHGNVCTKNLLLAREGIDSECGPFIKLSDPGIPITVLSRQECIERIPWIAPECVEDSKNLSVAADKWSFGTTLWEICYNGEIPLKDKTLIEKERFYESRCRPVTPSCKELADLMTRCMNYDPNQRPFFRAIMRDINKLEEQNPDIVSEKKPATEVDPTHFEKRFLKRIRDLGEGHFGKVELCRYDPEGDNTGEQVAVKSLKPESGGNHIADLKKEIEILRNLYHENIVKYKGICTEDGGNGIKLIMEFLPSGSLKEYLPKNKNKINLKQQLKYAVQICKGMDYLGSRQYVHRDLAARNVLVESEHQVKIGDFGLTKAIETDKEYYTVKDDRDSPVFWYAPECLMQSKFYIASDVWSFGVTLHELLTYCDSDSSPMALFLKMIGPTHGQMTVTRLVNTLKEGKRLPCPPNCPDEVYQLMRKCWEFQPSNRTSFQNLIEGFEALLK

Biological target: JAK1 (Homo sapiens, UniProt P23458)
Assay: JAK1 IC50 measurement
Details: read-out: IC50(μM) JAK1

“4-((3-((3-Chlorobenzyl)amino)cyclobutyl)amino)-1H-pyrrolo[2,3-b]pyridine-5-carboxamide [Compound 16d]” was tested, and the IC50 was 0.0814 µM.
